# scFv variants of Ab-91 (heavy chain) against a SARS-CoV-2 spike peptide

Reference: Engelhart et al. 2022, doi:10.1038/s41597-022-01779-4. File: FLAb, binding data.

Binding partner: SARS-CoV-2 spike HR2 peptide, sequence PDVDLGDISGINAS.

Parent: Ab-91, a human scFv built as VL, a (GGGGS)3 linker, VH. Only the CDRs of the heavy chain vary.
VL: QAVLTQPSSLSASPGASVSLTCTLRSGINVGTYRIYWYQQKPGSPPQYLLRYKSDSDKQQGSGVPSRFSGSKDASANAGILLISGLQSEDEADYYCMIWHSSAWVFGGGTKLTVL
VH: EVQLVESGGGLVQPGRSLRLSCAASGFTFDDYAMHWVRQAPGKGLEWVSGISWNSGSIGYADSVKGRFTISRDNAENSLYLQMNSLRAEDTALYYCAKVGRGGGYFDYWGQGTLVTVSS

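The parent was found by panning a naive human phage display library on the peptide. The library (AAYL51) carries one to three amino acid substitutions per variant, with no insertions or deletions. The assay is AlphaSeq: two haploid yeast populations carry antibody and antigen on their surface. Binding brings cells together so that they mate, and sequencing counts the barcode pairs among the diploids. Scores were corrected for input abundance and mapped to Kd with protein pairs of known affinity run in the same pool. Mating was done three times.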

The whole VH of each variant is written out. All variants listed here change G50 of the VH, counted from its first residue. Values are log10 of the apparent Kd in nM; lower means stronger binding. "nd" means that the variant was in the library but no mating with the target was seen in that replicate; the authors take this as a sign of poor binding, and no number exists. Parent in this assay: reference entry 1.86, copy in this library 0.88. As a blank, each scFv also met three strains without target: over library AAYL51, 21% of these pairings were detected, typically at 4.54 and seldom below 3.26.

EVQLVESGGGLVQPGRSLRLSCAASGFTFDDYAMHWVRQAPGKGLEWVSVISVNSGSIGYADSVKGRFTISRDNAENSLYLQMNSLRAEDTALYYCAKVARGGGYFDYWGQGTLVTVSS: 5.59, 6.39, nd.
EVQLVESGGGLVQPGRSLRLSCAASGFTFDDYAMHWVRQAPGKGLEWVSDISWNSGSIGYADSVKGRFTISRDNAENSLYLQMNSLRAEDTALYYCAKVGRGCGYFDCWGQGTLVTVSS: nd, nd, nd.
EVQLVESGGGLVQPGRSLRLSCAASGFTFDDYADHWVRQAPGKGLEWVSLISWNSGSGGYADSVKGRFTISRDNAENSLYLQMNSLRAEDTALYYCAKVGRGGGYFDYWGQGTLVTVSS: nd, nd, nd.
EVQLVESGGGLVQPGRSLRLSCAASGFTFDDYAMHWVRQAPGKGLEWVSQISWSSGSIGYADSVKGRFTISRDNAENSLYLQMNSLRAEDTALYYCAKVGRGTGYFDYWGQGTLVTVSS: nd, nd, nd.
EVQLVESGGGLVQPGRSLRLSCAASGFTFLDYAMHWVRQAPGKGLEWVSQISWNSGSIKYADSVKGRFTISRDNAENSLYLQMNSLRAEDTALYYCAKVGRGGGYFDYWGQGTLVTVSS: nd, nd, nd.
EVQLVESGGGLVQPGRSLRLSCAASGGTFDDYAMHWVRQAPGKGLEWVSPISWNRGSIGYADSVKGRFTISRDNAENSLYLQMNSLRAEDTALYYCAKVGRGGGYFDYWGQGTLVTVSS: nd, nd, nd.
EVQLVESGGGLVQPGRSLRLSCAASGFTFDFYAMIWVRQAPGKGLEWVSRISWNSGSIGYADSVKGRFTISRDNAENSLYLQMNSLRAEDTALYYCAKVGRGGGYFDYWGQGTLVTVSS: nd, nd, nd.
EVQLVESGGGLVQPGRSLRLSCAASGFTFDIYAMHWVRQAPGKGLEWVSPISWNSGSSGYADSVKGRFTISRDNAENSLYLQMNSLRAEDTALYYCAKVGRGGGYFDYWGQGTLVTVSS: nd, nd, 4.01.
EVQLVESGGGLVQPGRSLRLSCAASGFTFDDYAMHWVRQAPGKGLEWVSAISWNSGSIGYADSLKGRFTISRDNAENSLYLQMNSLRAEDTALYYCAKVGRGGGYGDYWGQGTLVTVSS: 3.93, nd, nd.
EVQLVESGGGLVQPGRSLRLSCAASGFTFNDYAMHWVRQAPGKGLEWVSKISWPSGSIGYADSVKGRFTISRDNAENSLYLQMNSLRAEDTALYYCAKVGRGGGYFDYWGQGTLVTVSS: nd, nd, nd.
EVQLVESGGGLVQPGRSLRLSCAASGFTFDDYAMHWVRQAPGKGLEWVSLISWNSGSIGGRDSVKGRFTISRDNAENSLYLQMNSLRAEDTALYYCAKVGRGGGYFDYWGQGTLVTVSS: nd, nd, nd.
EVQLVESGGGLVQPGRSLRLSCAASGFTFDDYAMHWVRQAPGKGLEWVSLISWDSGSIGYADSVKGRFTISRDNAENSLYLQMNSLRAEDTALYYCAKVGRGGSYFDYWGQGTLVTVSS: nd, nd, nd.
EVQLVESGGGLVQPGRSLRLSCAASGFTFDDYAHHWVRQAPGKGLEWVSDISCNSGSIGYADSVKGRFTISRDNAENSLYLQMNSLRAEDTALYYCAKVGRGGGYFDYWGQGTLVTVSS: nd, nd, nd.
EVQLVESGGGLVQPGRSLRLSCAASGFTFDDYAMHWVRQAPGKGLEWVSNISWNSGSIGYADSVKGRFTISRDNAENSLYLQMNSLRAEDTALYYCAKVGRGGGKFDYWGQGTLVTVSS: 5.19, nd, nd.
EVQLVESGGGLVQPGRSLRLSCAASGFTFDDYAMHWVRQAPGKGLEWVSLASWNSGSIGYADSVKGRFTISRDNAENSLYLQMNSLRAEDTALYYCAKVGRGGGYFPYWGQGTLVTVSS: nd, nd, nd.
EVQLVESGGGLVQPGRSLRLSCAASGFTFDDYAMHWVRQAPGKGLEWVSEISWNSGPISYADSVKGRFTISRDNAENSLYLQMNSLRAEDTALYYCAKVGRGGGYFDYWGQGTLVTVSS: 4.59, 5.37, nd.
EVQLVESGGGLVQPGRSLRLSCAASGFTFDDYAMHWVRQAPGKGLEWVSSIFWNSGSIGKADSVKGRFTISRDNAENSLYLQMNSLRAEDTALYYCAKVGRGGGYFDYWGQGTLVTVSS: 3.09, nd, nd.
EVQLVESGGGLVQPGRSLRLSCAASGFTFDDSAMHWVRQAPGKGLEWVSPISWNSGSIGNADSVKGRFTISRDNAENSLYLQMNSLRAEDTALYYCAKVGRGGGYFDYWGQGTLVTVSS: nd, nd, nd.
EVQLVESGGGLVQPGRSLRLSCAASGFTFDDYAMHWVRQAPGKGLEWVSIIHWNSGSIGIADSVKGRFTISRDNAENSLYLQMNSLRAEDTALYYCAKVGRGGGYFDYWGQGTLVTVSS: 4.64, 3.96, nd.
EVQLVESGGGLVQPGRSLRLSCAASGCTFDDYWMHWVRQAPGKGLEWVSMISWNSGSIGYADSVKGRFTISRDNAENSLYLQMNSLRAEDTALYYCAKVGRGGGYFDYWGQGTLVTVSS: 5.68, 4.37, nd.
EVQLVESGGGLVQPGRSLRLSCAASGFTFDDYAMHWVRQAPGKGLEWVSAISWNSGCIGYADSMKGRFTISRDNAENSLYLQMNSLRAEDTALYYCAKVGRGGGYFDYWGQGTLVTVSS: 4.24, nd, 3.64.

For reference, 3 entries of the list once more:

VH,"replicates, log10 nM"
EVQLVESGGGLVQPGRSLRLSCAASGFTFLDYAMHWVRQAPGKGLEWVSQISWNSGSIKYADSVKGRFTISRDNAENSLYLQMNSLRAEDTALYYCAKVGRGGGYFDYWGQGTLVTVSS,"nd, nd, nd"
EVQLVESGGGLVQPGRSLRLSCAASGFTFDDYAMHWVRQAPGKGLEWVSNISWNSGSIGYADSVKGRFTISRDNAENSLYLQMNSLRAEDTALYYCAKVGRGGGKFDYWGQGTLVTVSS,"5.19, nd, nd"
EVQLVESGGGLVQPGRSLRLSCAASGFTFDDSAMHWVRQAPGKGLEWVSPISWNSGSIGNADSVKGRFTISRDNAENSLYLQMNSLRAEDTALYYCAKVGRGGGYFDYWGQGTLVTVSS,"nd, nd, nd"